Experimental findings from PubChem BioAssay AID652106 (National Center for Advancing Translational Sciences (NCATS), 2013) are described below.

Several values for one entry are separate records, joined by “and”; a condition that tells them apart may be missing. Equal entries are not always repeated. The entries are a selection whose mix differs from that of the whole data set. Activity calls are given as the source filed them. The call rests on the fitted dose curve; in most records, active means well fitted activation curve with a large enough effect; inconclusive means small, poorly fitted or top-dose-only effect; inactive means no such curve, though single readings can be large or run the other way.

The experiment can be described thus: qHTS of alpha-syn Inhibitors. Further: % of control where 0% means no effect; nearly all actives have a fitted effect of over 65% in size. As to conditions: Yeast expressing alpha-synuclein, BacTiter-Glo, 24 h; at 46.1 µM (top of the series). The source says: The goal of this project is to identify new chemical probes capable of reversing the toxicity associated with the Parkinson disease-related protein, alpha-synuclein. Compounds will be selected on their ability to restore growth in yeast cells expressing toxic levels of alpha-synuclein. These compounds will provide a complementary approach to deciphering the tangled mechanisms of toxicity and protection that we have uncovered through genome-wide genetic screens and are beginning to uncover in a large-scale proteomics analysis with mass spectroscopy. To this end, a miniaturized assay was developed to be screened against the Molecular Libraries Small Molecule Repository (MLSMR) to discover alpha-synuclein inhibitors. Please note that in the set-up this yeast-based assay compounds that inhibit as alpha-syn, have a read-out as activators. NIH Chemical Genomics Center [NCGC] NIH Molecular Libraries Probe Centers Network [MLPCN] MLPCN Grant: NS060957 Assay Submitter (PI): Susan Lindquist, Whitehead Institute/MIT
Dispense 2.5 microL yeast galactose medium per 1536-well plate, pin compound, dispense 2.5 microL alpha-synuclein expressing yeast in galactose medium at OD600=0.02 (pregrown in raffinose medium to mid-log phase) per well, incubate for 24 hr at 30 deg C, and cell growth will be measured using 5 microL of Bactiter/Glo reagent to entire plate and read using Luminescence Protocol in ViewLux.
(In general: qHTS replaces the single test concentration by a dilution series.)
Turning to `CS(=O)(=O)c1cc([N+](=O)[O-])c2no[n+]([O-])c2c1`, the growth rescue (activation) is inactive: 6.11%.

For the molecule `O=P(Nc1nccs1)(c1ccccc1)c1nc2ccccc2s1` (stereo not drawn), the growth rescue (activation) was inactive: -79.6%.

For `O=P(Nc1nccs1)(Oc1ccccc1)Oc1ccccc1`, the growth rescue (activation) is inactive: -0.359%.

As for `CCOP1(=S)c2c(C)nn(CCC#N)c2N=C(c2ccccc2F)N1C` (stereo not drawn), the growth rescue (activation) was inactive: 4.36%.

For the molecule `O=C(O)COc1ccc([As](=O)(O)O)cc1[N+](=O)[O-]`, the growth rescue (activation) is inactive: -5.99%.

`Nc1ccccc1[As](=O)(O)c1ccccc1`: the growth rescue (activation) is inactive: -0.286%.

Turning to `NC(=O)Nc1ccc([As](=O)(O)O)cc1`, the growth rescue (activation) is inactive: -6.28%.

With `CN(C(=O)Cc1ccc(Cl)c(Cl)c1)[C@H]1CC[C@@]2(CCCO2)C[C@@H]1N1CCCC1`, the growth rescue (activation) was inactive: 0.0229%.

Turning to `O=[N+]([O-])c1ccc2c(c1)nnn2O`, the growth rescue (activation) was inactive: -34.8%.

Consider `CN(C(=O)Cc1ccccc1)[C@@H]1CC[C@]2(CCCO2)C[C@H]1N1CCCC1`, for which the growth rescue (activation) is inactive: -2.35% and inactive: 1.47%.

Consider `CCOP1(=S)c2c(C)nn(CCC#N)c2N=C(c2ccc(F)cc2)N1C` (stereo not drawn), for which the growth rescue (activation) was inactive: -6.55%.

As to `N#CCCN(C(=O)COC(=O)C(O)(c1ccccc1)c1ccccc1)c1ccc(F)cc1`, the growth rescue (activation) is inactive: 0.686%.

With `CS(=O)(=O)c1ccc(Cl)c(NC(=O)COC(=O)C(O)(c2ccccc2)c2ccccc2)c1`, the growth rescue (activation) is inactive: 8.95%.

On to `COc1cc(C(=O)NCC2(N3CCOCC3)CCCCC2)cc(Cl)c1OC(C)C`, for which the growth rescue (activation) is inactive: -5.77%.

Regarding `O=[As](O)(O)c1cccnc1`, the growth rescue (activation) was inactive: 6.79%.

In the case of `CN(C(=O)Cc1ccc(Cl)c(Cl)c1)[C@@H]1CC[C@]2(CCCO2)C[C@H]1N1CCCC1`, the growth rescue (activation) was inactive: 5.56%.

Turning to `O=C(OC1CN2CCC1CC2)c1ccc(Cl)cc1` (stereo not drawn), the growth rescue (activation) was inactive: 3.73%.

For `O=[As](O)(c1cccc(O)c1)c1cccc(O)c1`, the growth rescue (activation) is inactive: 1.58%.

On to `Cc1cccc(OCC(=O)OC2CN3CCC2CC3)c1` (stereo not drawn), for which the growth rescue (activation) was inactive: 6.73%.

Regarding `CCCOP(=S)(Nc1nc(N)cc(=O)[nH]1)OCCC`, the growth rescue (activation) was inactive: -0.346%.

In the case of `Nc1cccc2c([As](=O)(O)O)cccc12`, the growth rescue (activation) is inactive: -4.17%.

Consider `Cc1ccc(NCCc2c([N+](=O)[O-])cc([N+](=O)[O-])cc2[N+](=O)[O-])cc1`, for which the growth rescue (activation) is inactive: 4.03%.

On to `CCOP(=O)(Nc1cccc2ccccc12)OCC`, for which the growth rescue (activation) is inactive: 10.7%.

On to `COc1cc(C2NCCC3(OCCO3)C2(C)C)cc(OC)c1OC` (stereo not drawn), for which the growth rescue (activation) is inactive: 0.977%.

With `CN(CCCl)Cc1cc(Cl)c(NC2=NCCN2)c(Cl)c1`, the growth rescue (activation) is inactive: -0.18% and inactive: 0.475%.

For `CCOP(=O)(Nc1ccc(C)cn1)OCC`, the growth rescue (activation) is inactive: -3.29%.

Turning to `CCOP(=O)(NC(=NC(C)c1ccccc1)NC(C)c1ccccc1)OCC` (stereo not drawn), the growth rescue (activation) was inactive: 4.78%.

Take `CCC1=CC2Cc3nc4ccc(Cl)cc4c(N)c3C(C1)C2` (stereo not drawn): the growth rescue (activation) is inactive: 0.117%.

In the case of `O=P1(Nc2ccccn2)COc2ccccc2OC1`, the growth rescue (activation) is inactive: 5.28%.

In the case of `CC(C)(C)C(=O)NC(Sc1ncccn1)C(Cl)(Cl)Cl` (stereo not drawn), the growth rescue (activation) is inactive: 10.1%.

As for `O=P1(N(CCCl)CCCl)NCCC(C(F)(F)F)O1` (stereo not drawn), the growth rescue (activation) was inactive: 1.41%.

Regarding `COc1ccccc1CNC(=O)COC(=O)C(O)(c1ccccc1)c1ccccc1`, the growth rescue (activation) was inactive: -7.07%.

As for `CC1(CBr)Cn2c(nc3ccccc3c2=O)S1` (stereo not drawn), the growth rescue (activation) is inactive: -0.388%.

For `CN(C(=O)Cc1ccc(Cl)c(Cl)c1)[C@@H]1CCCC[C@H]1N1CCCC1`, the growth rescue (activation) was inactive: 0.586%.

On to `CC(C)/C=N\N=C(\N)N[N+](=O)[O-]`, for which the growth rescue (activation) was inactive: -5.12%.

With `COc1cc([N+](=O)[O-])ccc1[N+](=O)[O-]`, the growth rescue (activation) is inactive: 5.92%.

As for `Cc1ccc(C(=O)OC2CN3CCC2CC3)cc1` (stereo not drawn), the growth rescue (activation) was inactive: 2.41%.

Consider `CC1CCC(C(C)C)C(OP(=O)(Nc2ccccn2)c2ccccc2)C1` (stereo not drawn), for which the growth rescue (activation) is inactive: -0.781%.

In the case of `Cc1nn(-c2ccccc2)c2c1P(=O)(N1CCOCC1)N(C)C(c1ccccc1)=N2` (stereo not drawn), the growth rescue (activation) is inactive: 2.01%.

`CCCC1OP(=O)(Nc2ccccc2)OCC1CC` (stereo not drawn): the growth rescue (activation) was inactive: -7.78%.

Consider `O=C(/C=C/c1ccccc1)OC1CN2CCC1CC2` (stereo not drawn), for which the growth rescue (activation) was inactive: -8.23%.

`CN(C)C1(CNC(=O)c2ccc(S(C)(=O)=O)cc2)CCCCC1`: the growth rescue (activation) is inactive: -1.42%.

On to `O=P1(Nc2ncccn2)COc2ccccc2OC1`, for which the growth rescue (activation) is inactive: -0.923%.

In the case of `Cc1ccc(S(=O)(=O)N(CCCN)CCCc2c(C)nc(N)[nH]c2=O)cc1`, the growth rescue (activation) was inactive: 0.616%.

For `NS(=O)(=O)c1cccc(NC(=O)COC(=O)C(O)(c2ccccc2)c2ccccc2)c1`, the growth rescue (activation) was inactive: -10.8%.

`O=P1(Nc2ccc(Br)cn2)COc2ccccc2OC1`: the growth rescue (activation) was inactive: 9.41%.

As to `O=[As](O)(c1cccs1)c1cccs1`, the growth rescue (activation) was inactive: -11.1%.

`Cc1ccc(OCC(=O)OC2CN3CCC2CC3)cc1` (stereo not drawn): the growth rescue (activation) was inactive: -2.64%.

In the case of `Nc1cccc([As](=O)(O)c2ccccc2)c1`, the growth rescue (activation) was inactive: 3.16%.

Regarding `CC1CCNP(=O)(N(CCCl)CCCl)O1` (stereo not drawn), the growth rescue (activation) is inactive: -8.23%.

For the molecule `O=C(O)C(O)c1ccc(N(CCCl)CCCl)cc1` (stereo not drawn), the growth rescue (activation) was inactive: 2.29%.

As to `CCOC(=O)Nc1ccc([As](=O)(O)O)c(O)c1`, the growth rescue (activation) was inactive: -8.96%.

Regarding `Cc1cc(SC(NC(=O)c2ccccc2)C(Cl)(Cl)Cl)nc(C(C)C)n1` (stereo not drawn), the growth rescue (activation) is inactive: 1.03%.

`CCCCOc1ccc(C(=O)NCC2(N3CCCCC3)CCCCC2)cc1OC`: the growth rescue (activation) was inactive: 0.812%.

With `COP(=O)(OC)N1CC1c1ccccc1` (stereo not drawn), the growth rescue (activation) was inactive: 0.211%.

Regarding `CCOC(=O)Nc1cccc([As](=O)(O)O)c1`, the growth rescue (activation) is inactive: -2.47%.

`O=[N+]([O-])c1ccc(Nc2ccc(Oc3ccc([N+](=O)[O-])cc3[N+](=O)[O-])cc2)c([N+](=O)[O-])c1`: the growth rescue (activation) was inactive: -6.1%.

Take `Cc1cc(SC(NC=O)C(Cl)(Cl)Cl)ncn1` (stereo not drawn): the growth rescue (activation) is inactive: 0.28%.

Regarding `O=P(Nc1ccccn1)(c1cccc2ccccc12)c1cccc2ccccc12`, the growth rescue (activation) is inactive: 1.5%.

As for `COC(=O)C1(C)COP(=O)(N2CCCC2)OC1` (stereo not drawn), the growth rescue (activation) was inactive: -4.08%.

Take `COP1(=S)c2c(C)nn(CCC#N)c2N=C(c2ccc(F)cc2)N1C` (stereo not drawn): the growth rescue (activation) is inactive: 4.24%.

With `O=C(Nc1ccncc1[N+](=O)[O-])c1ccc([N+](=O)[O-])cc1[N+](=O)[O-]`, the growth rescue (activation) is inactive: 0.903%.

For `O=C(COc1ccccc1)OC1CN2CCC1CC2` (stereo not drawn), the growth rescue (activation) is inactive: -1.14%.
